16 compounds from PubChem BioAssay AID1347404 (Pan Lab, Icahn School of Medicine at Mount Sinai, 2020) can be followed below.

The chains behind the UniProt entries cited, without tags or fusion partners.
UniProt P62877, whole entry, looked up: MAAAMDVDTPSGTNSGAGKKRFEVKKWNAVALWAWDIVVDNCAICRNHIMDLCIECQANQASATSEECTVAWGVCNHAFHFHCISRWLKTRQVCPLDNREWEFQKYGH
UniProt Q13616, whole entry, looked up: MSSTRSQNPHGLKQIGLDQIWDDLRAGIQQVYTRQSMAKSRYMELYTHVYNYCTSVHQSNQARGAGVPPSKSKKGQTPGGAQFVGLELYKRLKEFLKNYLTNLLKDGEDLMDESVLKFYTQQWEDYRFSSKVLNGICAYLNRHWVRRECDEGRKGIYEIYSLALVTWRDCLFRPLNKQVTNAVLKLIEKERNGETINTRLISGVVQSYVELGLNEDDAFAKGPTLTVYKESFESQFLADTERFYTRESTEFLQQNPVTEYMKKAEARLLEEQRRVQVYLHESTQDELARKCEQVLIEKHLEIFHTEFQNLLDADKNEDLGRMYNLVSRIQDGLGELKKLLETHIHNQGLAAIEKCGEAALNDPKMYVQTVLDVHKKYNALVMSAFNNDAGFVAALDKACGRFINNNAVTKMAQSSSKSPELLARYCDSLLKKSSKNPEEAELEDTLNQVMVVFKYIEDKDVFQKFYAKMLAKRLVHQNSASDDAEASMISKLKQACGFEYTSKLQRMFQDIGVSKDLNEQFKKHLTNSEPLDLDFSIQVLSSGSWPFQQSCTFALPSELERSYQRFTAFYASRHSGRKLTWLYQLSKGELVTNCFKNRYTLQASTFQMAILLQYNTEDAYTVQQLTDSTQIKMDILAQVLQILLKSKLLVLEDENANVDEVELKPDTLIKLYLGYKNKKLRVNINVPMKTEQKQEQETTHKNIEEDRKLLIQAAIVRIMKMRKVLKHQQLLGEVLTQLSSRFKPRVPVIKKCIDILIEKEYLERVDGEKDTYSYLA

In general, inhibition refers to the change of the read-out against control, counted positive when it falls.

Each structure is given as a SMILES string. This is a selection; strong and weak results do not stand in their true shares. Active and inactive are the calls of the source. Rule as the data show it: active = inhibition above about 25%; inactive = the rest.

For the assay, the target named is E3 ubiquitin-protein ligase RBX1 (Homo sapiens) + Cullin-1 (Homo sapiens) (UniProt P62877+Q13616). Briefly: inhibitors of human ROC1-CUL1 ubiquitin ligase activity (AID 1347404). Particulars: in vitro K48 di-Ub FRET, acceptor:donor ratio, 45 min; at 10 µM; active compounds read high.
On to `O=[N+]([O-])c1cc2c(c([N+](=O)[O-])c1)-c1c(cc([N+](=O)[O-])cc1[N+](=O)[O-])C2=Cc1cccs1`, for which the inhibition was inactive: -9.96%.

As to `Cc1oc2cc([N+](=O)[O-])c(O)c([N+](=O)[O-])c2c1[N+](=O)[O-]`, the inhibition was active: 85.2%.

As for `CN(c1c([N+](=O)[O-])cc([N+](=O)[O-])c(N)c1[N+](=O)[O-])[N+](=O)[O-]`, the inhibition is inactive: -0.662%.

Regarding `CC(=O)N1CN([N+](=O)[O-])CCN([N+](=O)[O-])C1`, the inhibition was inactive: 5.35%.

In the case of `O=[N+]([O-])c1cc([N+](=O)[O-])c(-c2cnn(-c3ccccc3)c2)c([N+](=O)[O-])c1`, the inhibition was inactive: 0.288%.

For `CN1CCCCC1COC(=O)C1(O)c2ccccc2CCc2ccccc21` (stereo unspecified), the inhibition is inactive: 6.38%.

For the compound `C=CCN1CCN(CCOC(=O)C(O)(c2ccccc2)c2ccccc2)CC1`, the inhibition is inactive: 17%.

As to `COc1ccc(OP(C)(=O)Nc2cccc(Br)c2)cc1` (stereo unspecified), the inhibition is inactive: -8.45%.

With `O=[N+]([O-])C1([N+](=O)[O-])COCOC1`, the inhibition is inactive: -6.15%.

For `CCCCCOc1ccc(NP(C)(=O)Oc2ccc(Cl)cc2Cl)cc1` (stereo unspecified), the inhibition is inactive: -2.42%.

`CC(C)N1C(=O)CC2(CCN(CCOC(=O)C(O)(c3ccccc3)c3ccccc3)CC2)C1=O`: the inhibition is inactive: 7.09%.

`CN(C)c1c([N+](=O)[O-])cc([N+](=O)[O-])c(N(C)[N+](=O)[O-])c1[N+](=O)[O-]`: the inhibition is inactive: -2.54%.

On to `CC(C)N1C(=O)CC2(CCN(CCOC(=O)C(O)(c3ccccc3)C3CCCCC3)CC2)C1=O` (stereo unspecified), for which the inhibition was inactive: -7.5%.

For the compound `O=[N+]([O-])C1([N+](=O)[O-])CCCc2c1no[n+]2[O-]`, the inhibition is inactive: 4.52%.

For `CN1CCCCC1COC(=O)C1(O)c2ccccc2CCc2ncccc21` (stereo unspecified), the inhibition is inactive: -3.3%.

`N1=Nc2nonc2N=Nc2nonc21`: the inhibition was inactive: 3.96%.
